PINK1 modulator: changes PINK1 expression. PINK1 immunofluorescence, high-content cytometry, 24 h. Potency, µM (doses to about 76.6 µM), without a hit: at the top dose activation (PINK1 increase), most hits filed as activators. 410,000 tested, 0.2% active; active = well fitted activation curve with a large enough effect; cell line not stated here; note: potency is the fitted concentration of half-maximal effect; % of control where 0% means no effect; nearly all actives have a fitted effect of over 65% in size
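Decision-based qHTS: stable cells, 24 h exposure to five compound concentrations, CCCP as control. Fixed cells stained for PINK1 plus nuclear, mitochondrial and cell markers, cytometer read.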
RXFP1 agonist: agonists of human relaxin receptor RXFP1 | Q9HBX9 | HEK293T-RXFP1 cAMP TR-FRET, 30 min; response scale: percent of porcine relaxin response, buffer zero | Potency, µM (top dose mostly 57.5 µM), for the others: at the highest dose activation, usual class: activators | 370,000 tested, 0.3% active | AID 2676; note: potency is the fitted concentration of half-maximal effect; % is set by controls: 0 for no effect and ±100 for the full control effect; nearly all actives have a fitted effect of over 60% in size
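cAMP rise read by TR-FRET after 30 min, 37C compound exposure (up to 58 uM) in RXFP1-transfected HEK293 cells with Ro 20174 present. EC50 from Hill-equation fits, with 29 nM porcine relaxin as 100% and buffer as basal.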
miR-21 FLuc: miR-21 reporter, rising signal; HeLa miR-21 FLuc reporter, luciferase, 48 h; Potency, µM (highest dose often 38.3 µM), for the others: top-dose reporter change, positive = more light; 340,000 tested, under 10 active; AID 2288; active = well fitted rising curve with a large enough effect; inconclusive = small, poorly fitted or top-dose-only effect; inactive = no such curve, though single readings can be large or run the other way;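 further: % of control where 0% means no effect; miR-21 action dims this reporter so a rising signal means less miR-21 action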
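HeLa cells endogenously expressing miR-21, stably carrying CMV-driven firefly luciferase with a downstream miR-21 binding site, 2000 cells/well. Titrations up to approximately 40 uM, 48 hours; luciferase luminescence read.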
RXFP1 antag: blocks the human relaxin receptor RXFP1; Q9HBX9; HEK293-RXFP1, relaxin-stimulated cAMP HTRF, 30 min; active compounds read low; activity change, negative = inhibition, % at 57.5 µM; 350,000 tested, 0.59% active; AID 1259400;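 active = activity change of -60% or lower, but not beyond a set lower limit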; note: % is set by controls: 0 for no effect and ±100 for the full control effect
IL2 activator: activators of IL-2. 360,000 tested, 0.065% active. activation, % (series mostly up to about 46 µM). IL-2 activation reporter assay, cell-based qHTS; stimulated with anti-CD3/CD4/CD28 beads; in transgenic mouse T cells; in the data active = activation above about 50%; note: 0% is about no effect
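Screening format: compound pinned onto unstimulated transgenic mouse T cells, 60 min incubation, then anti-CD3/anti-CD4/anti-CD28 bead stimulation for 18 hours at 37 degrees C, followed by EGFP and DsRed detection.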
TCR activator: T cell receptor activation; AID 504894; Potency, µM (highest dose often 9.22 µM), for inactives: at the top dose activation of IL-2 secretion, usual class: activators; primary human leukocytes, anti-CD3, IL-2 HTRF, 48 h; 330,000 tested, under 10 active; note: % of control where 0% means no effect
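Primary human leukocytes receive a-CD3 beads and test compound and are incubated 48 hr. Secreted IL-2 is then assayed by HTRF, measuring 665nm acceptor emission after 320nm excitation of the europium donor.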
Starred values were filed as active, the others as inactive; nt = no result given; [ ] = dose if it differs, or a comment. Only some compounds are listed: those with a hit (about 0.78% of all), similar ones and a draw of the others. Unless noted, calls come from the whole dose curve; as a rule, active = well fitted curve in the direction sought with a large enough effect; inconclusive = small, poorly fitted or top-dose-only effect, or another doubt; inactive = no such curve, though single readings can be large; an effect the other way counts as inactive or inconclusive.

SMILES	PINK1 modulator	RXFP1 agonist	miR-21 FLuc	RXFP1 antag	IL2 activator	TCR activator
CN(CC(=O)Nc1ccc(Cl)c(Cl)c1)Cc1nnc(-c2ccc(F)cc2)o1	5%	0%	-9%	-63*	0	7%
CC(=O)c1sc(NC(=O)C(C)C)nc1C	-1%	8.9µM*	-2%	8	-1	-2%
CC(=O)Nc1nc(C)c(C(C)=O)s1	0%	19%	4%	3	1	0%
CO[C@H]1[C@H](NC(=O)c2cccs2)c2ccccc2C12CCN(Cc1cccn1-c1ccccn1)CC2	0%	nt	nt	nt	nt	nt
COc1ccc(C2C(C#N)=C(N)OC3=C2C(=O)CC(C)(C)C3)cc1OC (stereo not given)	0%	0%	0%	-76*	0	0%
COc1cc(CNCc2ccccc2)c(Br)cc1OC1CCCC1	10%	-2%	6%	-61*	-1	4%
COc1cc(CNC2CCCC2)c(Br)cc1OC1CCCC1	12%	3%	1%	-14	2	5%
O=C(Nc1cccc(-c2nc3ccccc3s2)c1)C1=COCCO1	2%	-1%	-34%	-80*	0	-4%[46.1 µM]
O=C(CN1C(=O)/C(=C/c2ccccc2)SC1=S)NC1C=CS(=O)(=O)C1 (stereo not given)	1%	0%	1%	-16	-3	-2%
O=C(CN1C(=O)/C(=C/c2ccccc2Cl)SC1=S)NC1C=CS(=O)(=O)C1 (stereo not given)	3%	2%	0%	-61*	-1	-12%
O=C(CN1C(=O)/C(=C/c2ccccc2)SC1=S)NC1CCS(=O)(=O)C1 (stereo not given)	-2%	-2%	1%	-61*	1	-2%
O=C(CCN1C(=O)/C(=C/c2ccccc2Cl)SC1=S)NNC(=O)c1ccccc1O	4%	-4%	-5%	-71*	0	-3%
O=C(CCN1C(=O)/C(=C/c2ccccc2Cl)SC1=S)NNC(=O)c1cccnc1	2%	0%	1%	-12	0	-6%
O=C(CN1C(=O)/C(=C/c2ccc(F)cc2)SC1=S)NC1CCS(=O)(=O)C1 (stereo not given)	2%	-3%	-1%	-67*	-1	0%
COC(=O)C1CCN(Cc2ccc3c(c2)CN(C(=O)c2cc(-c4ccc(C)o4)[nH]n2)CCO3)CC1	1%	nt	nt	nt	nt	nt
COC(=O)/C=C\C(=O)OC	nt	nt	nt	-7	nt	nt
Cc1ccc2[nH]c(C)c(/C=C/c3cc[n+](C)cc3)c2c1	14µM*	0%	29%	-21	159*	1%
Cc1nc(N2CCC(C)CC2)c2c(C)c(C(=O)Nc3ccc(C(F)(F)F)cc3)sc2n1	40µM*	2%	-6%	3	-3	-4%
Cc1nc(N2CCC(C)CC2)c2c(C)c(C(=O)Nc3cccc(C(F)(F)F)c3)sc2n1	20%	13%	-2%	-10	-2	0%
C[C@@H]1CN(Cc2ccc3c(c2)CN(Cc2cccc4cccnc24)CCO3)C[C@H](C)O1	1%	nt	nt	nt	nt	nt
CCn1nc(C)cc1C(=O)NCC1CCC2(CCN(Cc3ccccc3F)CC2)O1 (stereo not given)	1%	nt	nt	nt	nt	nt
Cc1c(C(=O)Nc2ccccc2)c2ccc(C(F)(F)F)cc2n1O	45µM*	nt	nt	-20	0	-3%
CC(Sc1ncnc2sc(-c3ccccc3)cc12)C(=O)NCC1CCCO1 (stereo not given)	0%	2%	nt	-98*	-6	4%
CCc1cccc2c(SC(C)C(=O)NCC3CCCO3)nc(-c3ccccc3)nc12 (stereo not given)	nt	-2%	-6%	7	-1	-10%
CCC1(C2CCN(Cc3c(C)[nH]c4ccccc34)CC2)NC(=O)N(Cc2ccc3c(c2)OCO3)C1=O (stereo not given)	0%	nt	nt	nt	nt	nt
O=C(c1ccnc(-n2cnnn2)c1)N1CCOc2ccc(C(O)CCc3ccccc3)cc2C1 (stereo not given)	1%	nt	nt	nt	nt	nt

An excerpt from above in order of heavy-atom count, ascending.
SMILES	PINK1 modulator	RXFP1 agonist	miR-21 FLuc	RXFP1 antag	IL2 activator	TCR activator
COc1cc(CNCc2ccccc2)c(Br)cc1OC1CCCC1	10%	-2%	6%	-61*	-1	4%
O=C(CN1C(=O)/C(=C/c2ccccc2Cl)SC1=S)NC1C=CS(=O)(=O)C1 (stereo not given)	3%	2%	0%	-61*	-1	-12%
C[C@@H]1CN(Cc2ccc3c(c2)CN(Cc2cccc4cccnc24)CCO3)C[C@H](C)O1	1%	nt	nt	nt	nt	nt
COC(=O)C1CCN(Cc2ccc3c(c2)CN(C(=O)c2cc(-c4ccc(C)o4)[nH]n2)CCO3)CC1	1%	nt	nt	nt	nt	nt

Assay outcomes deposited in PubChem BioAssay by National Center for Advancing Translational Sciences (NCATS).
